Data on 7 molecules can be found in US8436005B2, “Macrocyclic pyrimidine derivatives” (Abbott Laboratories, priority 2008, dated 2013).

By UniProt entry, the sequences of proteins in these tests, tags left out.
UniProt Q9H3N8, whole entry, species assumed: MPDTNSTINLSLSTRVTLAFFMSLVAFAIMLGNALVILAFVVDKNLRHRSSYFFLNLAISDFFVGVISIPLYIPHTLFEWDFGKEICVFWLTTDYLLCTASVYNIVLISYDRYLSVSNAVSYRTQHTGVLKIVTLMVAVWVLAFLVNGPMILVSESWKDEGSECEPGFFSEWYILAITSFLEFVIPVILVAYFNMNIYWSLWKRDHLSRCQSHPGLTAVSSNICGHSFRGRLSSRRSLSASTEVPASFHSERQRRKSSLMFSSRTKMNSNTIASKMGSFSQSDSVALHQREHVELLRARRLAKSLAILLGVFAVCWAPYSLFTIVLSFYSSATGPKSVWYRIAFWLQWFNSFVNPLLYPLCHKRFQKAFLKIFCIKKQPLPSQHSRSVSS

Molecules are shown by their SMILES. Like-named read-outs stand apart in the source and are kept apart here.

For test [1], the target named is T1, histamine H4 receptor (Homo sapiens, UniProt Q9H3N8). Kind of test: In vitro histamine H4 potency in FLIPR (Ca2+ flux, Fluo-4, HEK-293 cells coexpressing Gαqi5). Also noted: expressed in transfected cells. The format is cell-based. The note with it: HEK-293 cells stably expressing histamine H4 receptor and Gαqi5.
For test [2], the target named is T1, histamine H4 receptor. The conditions noted are these: read-out: Potency (Ki by Cheng-Prusoff, displacement of [3H]-histamine); membranes of transfected HEK-293 cells, 25° C., 1 hour.
Test [3] has as its target T1, histamine H4 receptor. The test can be described thus: biochemical.

In the case of `COC1(OC)CCCc2c(N3CCNCC3)nc(N)nc21` [Example 12, 8,8-dimethoxy-4-(piperazin-1-yl)-5,6,7,8-tetrahydroquinazolin-2-amine], the “Potency (Kb for antagonists and inverse agonists, EC50 for partial agonists)” value (from here on “Potency”) at histamine H4 receptor [1] is 133 nM.
For `Nc1nc2c(c(N3CCNCC3)n1)CCCCC2c1ccccc1` (stereo not shown) [Example 19, 9-phenyl-4-(piperazin-1-yl)-6,7,8,9-tetrahydro-5H-cyclohepta[d]pyrimidin-2-amine], the Ki at histamine H4 receptor [2] was determined as 40 nM. Also, on histamine H4 receptor [1], the “Potency” value is 58 nM.
Regarding `CCC1(CC)CCCCc2c(N3CC[C@@H](N)C3)nc(N)nc21` [Example 3, (R)-4-(3-aminopyrrolidin-1-yl)-9,9-diethyl-6,7,8,9-tetrahydro-5H-cyclohepta[d]pyrimidin-2-amine], the “Potency” value on histamine H4 receptor [1] is given as 78 nM.
Same read-out and setting: under `CC1(C)CCCCc2c(N3CC[C@@H](N)C3)nc(N)nc21` [Example 1, (R)-4-(3-aminopyrrolidin-1-yl)-9,9-dimethyl-6,7,8,9-tetrahydro-5H-cyclohepta[d]pyrimidin-2-amine] stands 35 nM.
Take `Nc1nc2c(c(N3CC4CCCNC4C3)n1)CCCCC2c1ccccc1` (stereo not shown) [Example 20, 9-phenyl-4-tetrahydro-1H-pyrrolo[3,4-b]pyridine-6(2H,7H,7aH)-6,7,8,9-tetrahydro-5H-cyclohepta[d]pyrimidin-2-amine]: the “Potency” value at histamine H4 receptor [1] is 26 nM. Besides, on histamine H4 receptor [3], the Ki was 4.4 nM.
For `Nc1nc2c(c(N3CC(N)C3)n1)CCCC(c1ccccc1)C2` (stereo not shown) [Example 8, 4-(3-aminoazetidin-1-yl)-8-phenyl-6,7,8,9-tetrahydro-5H-cyclohepta[d]pyrimidin-2-amine], the “Potency” value on histamine H4 receptor [1] is recorded as 2700 nM.
Consider `Nc1nc2c(c(N3C[C@H]4CCCN[C@H]4C3)n1)CCCCC2c1ccccc1` (stereo partly drawn) [Example 21, 9-phenyl-4-((4aR,7aR)-tetrahydro-1H-pyrrolo[3,4-b]pyridin-6(2H,7H,7aH)-yl)-6,7,8,9-tetrahydro-5H-cyclohepta[d]pyrimidin-2-amine], for which the “Potency” value on histamine H4 receptor [1] turned out to be 13 nM. For the same molecule, the Ki on histamine H4 receptor [3] is 2.8 nM.
